{"source": "patent US12246011B2", "about": "“Radiation mitigator and method of use thereof” (Georgetown University, priority 2016, dated 2025)", "origin": "cited, not measured here", "target": "angiotensin II receptor type 1 (AT1) (Homo sapiens, UniProt P30556)", "conditions": "AT1 versus AT2; cited from earlier work", "data": [{"smiles": "CCCc1nc2c(C)cc(-c3nc4ccccc4n3C)cc2n1Cc1ccc(-c2ccccc2C(=O)O)cc1", "note": "[telmisartan, Telmisartan]", "values": [{"measurement": "binding affinity greater for AT1 than for AT2", "result": 3000, "unit": "times"}]}]}
